## Binding of CDR-mutated scFvs to a peptide of the spike HR2 region

The measurements come from Li et al. 2023 (doi:10.1038/s41467-023-39022-2) through the FLAb antibody collection.

The target is the same throughout: PDVDLGDISGINAS, from the HR2 region of SARS-CoV-2 spike.

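The parent was found by panning a naive human phage display library on the peptide. Designed CDR sequences, proposed from the first random library and measured here. Several design methods are mixed in this list. Affinity was read by AlphaSeq, a pooled yeast mating assay with surface-displayed partners. Pairs that bind mate more often; barcode pairs of the diploids are counted by sequencing. Scores were corrected for input abundance and mapped to Kd with protein pairs of known affinity run in the same pool. Mating was done six times.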

Parent: Ab-14, a human scFv built as VH, a (GGGGS)3 linker, VL. Only the CDRs of the heavy chain vary.
VH: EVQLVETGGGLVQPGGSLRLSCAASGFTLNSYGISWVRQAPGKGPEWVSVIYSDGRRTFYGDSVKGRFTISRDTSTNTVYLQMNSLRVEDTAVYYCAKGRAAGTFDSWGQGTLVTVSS
VL: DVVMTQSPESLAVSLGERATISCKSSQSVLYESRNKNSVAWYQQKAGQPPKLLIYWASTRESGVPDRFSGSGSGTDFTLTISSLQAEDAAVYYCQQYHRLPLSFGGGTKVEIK

Substitutions are numbered in sequence along the VH above, starting at 1 (not Kabat). This list holds designs with at most six substitutions. The read-out is the apparent dissociation constant on a log10 scale (nM): the lower, the stronger. "nd" marks a missing value. The strain was present, yet no cells mated with the target were sequenced in that replicate, which points to weak or no binding.

With S31E/G61S/S63A/A101Q the result was 0.00, -0.23, -0.02, -0.22, -0.28, -0.18. For T28S/F59A/S63D/A101N, the assay gave 0.32, 0.93, 1.22, nd, 0.22, 0.56. With T28D/T104H/D106V the result was -0.06, 1.01, 0.28, -0.26, 0.41, 0.70. The variant S31E/D106M/S107N showed nd, nd, nd, nd, nd, nd. For T28E/R56K/A101M, the assay gave 0.78, 0.81, 1.07, 2.03, 0.82, 1.30. The variant T28N/R100Q/A101T/S107A showed 1.65, 2.49, 2.71, 0.53, 1.11, 0.81. For T28Q/S31E/S107E, the assay gave 1.20, 0.21, 1.16, 0.88, 0.46, 0.73.

With S53A/S63D/R100E/S107K the result was 0.77, 0.57, 0.16, -0.50, -0.05, -0.22. The variant R56K/R100Q/S107L gave 1.29, 1.41, 1.87, 1.21, 1.30, 1.91. The variant S53A/R100Q/S107L showed -0.07, 0.18, -0.14, -0.02, -0.10, 0.26. The variant T28E/G61S/R100N/S107Q showed 1.54, 0.64, 1.46, 0.22, 0.53, 0.53. The variant G26Y/T28S/G61A/A101E showed 1.75, 1.11, 1.99, 0.62, 0.64, 0.96. With T28N/S63R/R100W/A101T the result was nd, nd, nd, nd, nd, nd. The variant F59N/G61D/R100Q/A101E/T104F gave nd, nd, nd, nd, nd, nd.

The variant T28S/G61C/R100E showed 1.05, 0.48, 0.71, 0.76, 1.07, 1.64. The variant T28D/S63Q/R100K/A101T showed -0.15, 0.10, 0.02, -0.13, -0.35, 0.18. For N30D/R100P, the assay gave nd, nd, nd, nd, nd, nd. With T28S/G61A/R100K the result was 1.14, 0.45, 0.25, 0.41, 0.83, 0.95. For T28D/G61D/R100W, the assay gave 0.47, 0.75, 0.23, 0.30, 0.36, 1.00. The variant T28E/G61V/R100N showed -0.07, 0.34, 0.31, -0.29, nd, -0.02. The variant T28F/S31D/R100E showed nd, 0.88, 2.56, nd, -0.10, nd.

With N30Q/S53A/S63D/F105N/D106K the result was nd, nd, nd, nd, nd, nd. For S31E/A101V/S107V, the assay gave 0.02, 0.06, -0.35, -0.22, -0.17, -0.12. The variant S53A/R100M showed 1.76, 0.93, 1.47, 0.38, 0.17, 0.33. The variant F27V/T28S/G61D gave nd, nd, nd, 2.04, nd, nd. The variant T28E/G61V/R100K/S107T showed 1.20, 1.51, 1.54, 1.24, 3.29, 1.94. The variant G61V/S63R/A102G/S107V gave nd, nd, nd, nd, nd, nd. For G61A/T104Q, the assay gave nd, nd, nd, nd, nd, nd.

The variant T28V/S31D/G61Q showed 0.70, 2.57, 1.58, 2.28, 1.59, 1.43. With T28S/G61K/R100Q/A101V the result was 0.65, 0.25, 0.66, 0.50, 0.29, 0.43. For F59A/G61Q, the assay gave nd, nd, nd, nd, nd, nd; 0.80, 0.96, 0.17, 0.37, 2.18, 0.18. The variant G26Y/S31D/F59Q/G61I showed nd, nd, nd, 2.29, 1.37, nd. The variant T28E/S31E/G61E/S63D/A101T gave 0.79, 0.57, 0.20, 0.29, 0.49, 0.78. For G61I/R100Q/A101T/S107T, the assay gave 0.03, 0.38, -0.19, 0.15, -0.07, -0.12. For T28S/A101E/S107D, the assay gave 1.27, 0.23, 0.01, 0.90, 0.68, 1.28.

For T28D/A101T/S107A, the assay gave -0.19, -0.53, -0.40, -0.90, -0.55, -0.60.

For reference, 2 entries of the list once more:

T28E/R56K/A101M: 0.78, 0.81, 1.07, 2.03, 0.82, 1.30.
T28S/G61A/R100K: 1.14, 0.45, 0.25, 0.41, 0.83, 0.95.

The authors averaged sequences with at least three values out of six and counted those with two or fewer as poor binders. Nonspecific signal, from three strains lacking the peptide, appeared in 1% of pairings of all heavy chain designs, centred on 2.08 (5% of these signals below 0.84); values are not corrected for it. A sequence measured in both rounds can read differently, since the two assays cover different ranges. Of ten entries with the parent sequence, four were seen in most replicates (averages 0.34 to 2.37), three in one and three in none, so single entries are noisy. Some sequences occur more than once in the pool; their replicates are listed entry by entry, parted by semicolons.